These are literature values, as cited in US12186286B2, “Use of senicapoc for treatment of stroke” (Paracelsus Neuroscience II, LLC, priority 2019, dated 2025).

This data set deals with human KCa3.1 (Homo sapiens, UniProt O15554). As to conditions: cited from earlier work.

Structures are written as SMILES.

Take `NC(=O)C(c1ccccc1)(c1ccc(F)cc1)c1ccc(F)cc1` [Senicapoc, senicapoc]: the half-inhibitory concentration (IC50) was 0.011 µM.

For orientation: IC50 means the concentration needed to halve the response being measured.
